Ab-14 heavy chain CDR variants: yeast mating affinities

The target is the same throughout: PDVDLGDISGINAS, from the HR2 region of SARS-CoV-2 spike.

Ab-14 is the parent antibody, in scFv form: VH, then a (GGGGS)3 linker, then VL. The light chain is unchanged in all variants.
VH: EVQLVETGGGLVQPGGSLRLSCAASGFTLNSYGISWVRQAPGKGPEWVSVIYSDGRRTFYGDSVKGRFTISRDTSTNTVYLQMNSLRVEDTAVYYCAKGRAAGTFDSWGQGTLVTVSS
VL: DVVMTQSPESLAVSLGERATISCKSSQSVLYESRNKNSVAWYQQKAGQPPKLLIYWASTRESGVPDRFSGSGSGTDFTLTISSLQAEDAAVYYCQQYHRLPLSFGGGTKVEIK

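The starting antibody came from a phage panning campaign against this peptide. Library AAYL49 holds single substitutions and randomly drawn double and triple substitutions in the CDRs. Affinity was read by AlphaSeq, a pooled yeast mating assay with surface-displayed partners. The frequency of each diploid, read from paired DNA barcodes, reflects how well the two displayed proteins bind. A regression on co-assayed BCL2-family reference pairs converts the normalised counts of each replicate to an apparent Kd. Each pool was mated in three replicate cultures.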

Variants are written as CDR1, CDR2 and CDR3 of the heavy chain (limits as in the source). Parent: GFTLNSYGIS, VIYSDGRRTFYGDSVK, GRAAGTFDS.
Affinities are written as log10 Kd with Kd in nM; a lower number is a better binder.
Where no diploid with the target was found in that replicate, the entry reads "n.d.": below detection, most likely a poor binder, though not proof of it.
For reference, the parent read 0.65 as the reference entry and 4.11 (one replicate of three) as a member of this library.
Three control strains display no target. For library AAYL49, 15% of the pairings with them gave a signal, with a median of 4.06 and one signal in twenty below 2.83, so weak values seen in few replicates may be background. Also given: how often the same scFv was detected with the empty control strains, with their mean in brackets.

CDR-H1,CDR-H2,CDR-H3,log10 Kd (nM) by replicate,control signals
GFTLNSRGIS,VIYSDFRRTFYGDSVK,GLAAGTFDS,n.d. / n.d. / n.d.,0/9
GFTLNSYGIS,VIYSDGRRTFYGVSVK,FRAAGCFDS,n.d. / n.d. / n.d.,1/9 (2.68)
GFTLNSYGIS,VIFSDGRRTAYGDSVK,YRAAGTFDS,n.d. / n.d. / n.d.,0/9
GFTLNSYGIS,VIYSDGRRKFYGDSVK,GYAIGTFDS,4.21 / n.d. / 2.28,1/9 (3.23)
GFLLNSYGIS,VIYSDGRRTFYGDSGK,GRARGTFDS,2.38 / n.d. / 4.10,0/9
GFTLNSYSIS,VIYSDCRRTFYGDSVK,GRAAGTFDS,n.d. / n.d. / n.d.,0/9
GFTLNKYGHS,VIYSDGFRTFYGDSVK,GRAAGTFDS,n.d. / 2.22 / n.d.,1/9 (3.56)
GETLNSYGIA,VIYSDGRRTFYGVSVK,GRAAGTFDS,n.d. / n.d. / n.d.,0/9
GFTLNSYGIS,WIQSDGRRTFYGDSVK,GRAAGTFYS,4.76 / 4.09 / n.d.,2/9 (4.38)
GFTLNSYFIS,VIYSCGQRTFYGDSVK,GRAAGTFDS,n.d. / 4.76 / n.d.,8/9 (4.70)
GFMLNSYGIS,VIYSDTRRTFYGDSVK,GRAAGTFDS,n.d. / n.d. / n.d.,0/9
GFTLNSYGIS,VIYSLGRRTFYGDSVK,GRACGTFDS,n.d. / n.d. / n.d.,1/9 (3.84)
GDTLNSYGIS,VIYSDGRRTFGGMSVK,GRAAGTFDS,n.d. / n.d. / n.d.,0/9
GFTLNSYGIS,VIYSDGRRCFRGDSVK,GRAADTFDS,n.d. / n.d. / n.d.,0/9
FFPLNSYGIS,VIYSDGRRTFYGDSVK,KRAAGTFDS,n.d. / n.d. / n.d.,0/9
GFTLNSYGIS,VIYGCGRRTFYGDSVK,GRAAGTFDS,n.d. / n.d. / n.d.,0/9
GFTLNSYGIS,YWISDGRRTFYGDSVK,GRAAGTFDS,n.d. / 3.88 / 4.53,7/9 (4.67)
GFTVNSYGIS,VIYSIGRRTFYGDSAK,GRAAGTFDS,n.d. / n.d. / n.d.,0/9
GFTLNSYGIS,VIVSDGRRTFYGDSVQ,GRARGTFDS,n.d. / n.d. / n.d.,0/9
GFTLNSYGIS,VIYSDGRDTFYGDYVT,GRAAGTFDS,n.d. / n.d. / n.d.,0/9
GFTLNSYGIS,VIYSTGRRTMYGDSVK,GRAAGTFTS,n.d. / n.d. / n.d.,0/9
GFTLNSYGIS,VIYSDGRRTFYNDSVV,GRAAGTFDS,3.74 / n.d. / n.d.,1/9 (5.34)
LFTLNSYGIS,VIYSDGRRTFYGDSVK,GRAAGSFDS,6.08 / 3.83 / 3.98,3/9 (3.87)
GFTLNSYGIS,VIYSSGRRTFYGDSVK,GRAANTFDS,n.d. / n.d. / n.d.,0/9
GFTLNSYGIS,VHYSDGNRTFYGDSVK,GYAAGTFDS,n.d. / n.d. / n.d.,0/9
GLTLNSYGIS,VIYSWGRRTFYGDSVM,GRAAGTFDS,n.d. / n.d. / n.d.,1/9 (2.87)
GFTLNSYGIS,VIYGDGRTTFYGDSVK,GRAAGTFDS,n.d. / 4.89 / 4.87,1/9 (5.21)
GFTLNPYGIS,VIYSDGRRKFYGDSVK,GRAAGTFDS,3.97 / 3.47 / n.d.,0/9
MFTLNSAGIS,VIYSDGRRTFYGDSVK,GYAAGTFDS,n.d. / n.d. / n.d.,0/9
GFTLNSYGIN,VIYSDGQRTFYGDMVK,GRAAGTFDS,n.d. / n.d. / n.d.,1/9 (2.75)
GFTLNSYGIS,VWSSDGRRTFYGDSVK,GRMAGTFDS,n.d. / n.d. / n.d.,2/9 (3.33)
GFTLNSYGIS,VIYSDGKRTFYGDSGK,GRAAGTFES,n.d. / n.d. / n.d.,0/9
GFTLNSYGIS,VIYSDGYRTFYDDSVK,GREAGTFDS,0.55 / 0.74 / 0.56,1/9 (5.45)
IFTLNSYGIS,VIYSDGRRTMYGDSVK,GRAAYTFDS,n.d. / n.d. / n.d.,0/9
QFTLNIYGIS,VIYSDGRRTFYGDSVK,GRWAGTFDS,n.d. / 3.08 / 4.71,3/9 (4.13)
GFTLNSRGIS,LIYSDGRRTFYGDSSK,GRAAGTFDS,n.d. / n.d. / 3.37,2/9 (4.90)
GFTLNSYGIS,VIYRDGRRTFYGDSCK,GRAAGNFDS,n.d. / n.d. / n.d.,0/9
GFGLNSYGIS,VIYSAGRRTFYGDSVK,GRAAYTFDS,n.d. / n.d. / n.d.,0/9
GFTLNSPGIS,VIYSDGRRPFYGDSVK,NRAAGTFDS,n.d. / 3.92 / n.d.,4/9 (3.93)

Values reported by Engelhart et al. 2022, doi:10.1038/s41597-022-01779-4 (FLAb copy).